For this assay, the target named is Dual specificity tyrosine-phosphorylation-regulated kinase 1A (Mus musculus, UniProt Q61214). Description: Inhibition of mouse glutathione S-transferase-tagged Dyrk1A expressed in Escherichia coli DH5alpha using NH2-RSPSYGRSRSRSRSRSRSRSRSNSRSRSY-OH peptide as substrate in presence of [gamma 32P-ATP] and ATP by liquid scintillation counting method.

Take `CCN1/C(=C/C(C)=O)Sc2ccc(OC)cc21`: the half-inhibitory concentration (IC50) was determined as 12 nM.

Values taken from ChEMBL document CHEMBL5113421, “Development of novel conformationally restricted selective Clk1/4 inhibitors through creating an intramolecular hydrogen bond involving an imide linker” (Eur J Med Chem, 2022).
